AlphaSeq binding of Ab-14 light chain variants to a spike HR2 peptide

Binding partner: SARS-CoV-2 spike HR2 peptide, sequence PDVDLGDISGINAS.

Parent: Ab-14, a human scFv built as VH, a 15-residue (Gly4Ser)3 linker, VL. Only the CDRs of the light chain vary.
VH: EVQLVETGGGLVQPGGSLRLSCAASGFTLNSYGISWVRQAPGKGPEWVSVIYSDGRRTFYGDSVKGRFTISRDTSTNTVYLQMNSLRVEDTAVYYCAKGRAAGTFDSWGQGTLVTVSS
VL: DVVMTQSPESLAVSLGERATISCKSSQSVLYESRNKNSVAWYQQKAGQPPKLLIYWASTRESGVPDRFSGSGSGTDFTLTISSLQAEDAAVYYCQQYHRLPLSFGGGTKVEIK

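The starting antibody came from a phage panning campaign against this peptide. The library (AAYL50) carries one to three amino acid substitutions per variant, with no insertions or deletions. The scFvs were displayed on barcoded MATa yeast, the peptide on MATalpha yeast. Pairs that bind mate more often; barcode pairs of the diploids are counted by sequencing. The ratio of observed to expected reads was calibrated, replicate by replicate, on BCL2-family standards whose Kd was known from biolayer interferometry. Each pool was mated in three replicate cultures.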

The whole VL of each variant is written out. Each Kd is an estimate from the mating assay, the geometric mean of the replicates in which the pair was seen; lower is stronger. "nd" marks a missing value. The strain was present, yet no cells mated with the target were sequenced in any replicate, which points to weak or no binding.

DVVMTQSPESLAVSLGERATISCKSIQSVLYESRNKNSVQWYQQKAGQPPKLLIYWASTRESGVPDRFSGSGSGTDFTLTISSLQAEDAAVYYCQQYHRLPLSFGGGTKVEIK: 16 µM (1 of 3 replicates; controls 3 of 9).
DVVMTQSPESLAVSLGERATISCKSSQSVEYESRNKNSVAWYQQKAGQPPKLLIYWNSTRFSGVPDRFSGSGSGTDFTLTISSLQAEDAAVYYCQQYHRLPLSFGGGTKVEIK: 6.9 µM (2 of 3 replicates; controls 6 of 9).
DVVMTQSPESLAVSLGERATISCYSSQSVLYESRNKNSVPWYQQKAGQPPKLLIYWARTRESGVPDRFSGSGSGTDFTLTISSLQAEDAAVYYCQQYHRLPLSFGGGTKVEIK: nd (0 of 3 replicates; controls 2 of 9).
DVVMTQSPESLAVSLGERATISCFSSQSVLYESRNKNSVAWYQQKAGQPPKLLIYWHSTRESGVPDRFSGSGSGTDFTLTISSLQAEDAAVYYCLQYHRLPLSFGGGTKVEIK: 10 µM (1 of 3 replicates; controls 0 of 9).
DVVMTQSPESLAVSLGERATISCNSSQSVLIESRNKNSVAWYQQKAGQPPKLLIYWASTRESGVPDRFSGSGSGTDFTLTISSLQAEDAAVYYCQQYHRLPLEFGGGTKVEIK: 120 nM (3 of 3 replicates; controls 1 of 9).
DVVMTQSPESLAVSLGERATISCKSSQSCLYESRNKNSVAWYQQKAGQPPKLLIYWASTRQSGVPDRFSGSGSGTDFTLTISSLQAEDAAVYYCQQYHRLPLSFGGGTKVEIK: 15 nM (3 of 3 replicates; controls 1 of 9).
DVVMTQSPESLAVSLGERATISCKSSQSVLYESRNTNSVAWYQQKAGQPPKLLIYWASTRVSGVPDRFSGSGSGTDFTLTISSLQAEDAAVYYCQQYHRLPLSFGGGTKVEIK: nd (0 of 3 replicates; controls 3 of 9).
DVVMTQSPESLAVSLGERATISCKSSQSVLVESRNKASVAWYQQKAGQPPKLLIYWASTRESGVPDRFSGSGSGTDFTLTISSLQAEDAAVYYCQQYHRLPNSFGGGTKVEIK: 6.2 nM (3 of 3 replicates; controls 6 of 9).
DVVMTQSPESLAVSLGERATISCESSQSVLYISRNKNSVAWYQQKAGQPPKLLIYWASTRESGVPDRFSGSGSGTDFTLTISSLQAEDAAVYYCQQYHRLPLSFGGGTKVEIK: 17 nM (3 of 3 replicates; controls 3 of 9).
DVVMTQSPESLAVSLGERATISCKSSQSVLYESRNKNSVAWYQQKAGQPPKLLIYWASTRESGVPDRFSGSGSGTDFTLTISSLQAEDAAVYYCGQYQTLPLSFGGGTKVEIK: 6.6 µM (2 of 3 replicates; controls 3 of 9).
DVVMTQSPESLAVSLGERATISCKSSQSGKYESRNKNSVAWYQQKAGQPPKLLIYWASTRESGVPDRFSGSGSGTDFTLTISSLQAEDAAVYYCQQIHRLPLSFGGGTKVEIK: nd (0 of 3 replicates; controls 0 of 9).
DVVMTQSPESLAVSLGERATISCKSSPSVLYESRNKNSVAWYQQKAGQPPKLLIYWKSTRESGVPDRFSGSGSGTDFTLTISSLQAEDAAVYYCQQYHRCPLSFGGGTKVEIK: 58 nM (3 of 3 replicates; controls 4 of 9).
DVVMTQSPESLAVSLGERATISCKSGQSQLYESRNKNSVAWYQQKAGQPPKLLIYWASTREGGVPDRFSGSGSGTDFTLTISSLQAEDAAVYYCQQYHRLPLSFGGGTKVEIK: 300 nM (3 of 3 replicates; controls 2 of 9).
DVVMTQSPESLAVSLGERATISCKSSQSVLYESRNKRSVAWYQQKAGQPPKLLIYWASNRVSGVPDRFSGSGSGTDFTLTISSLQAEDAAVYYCQQYHRLPLSFGGGTKVEIK: 25 nM (3 of 3 replicates; controls 0 of 9).
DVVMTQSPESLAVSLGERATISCKESQSVLYESRNKNSVAWYQQKAGQPPKLLIYWASTKESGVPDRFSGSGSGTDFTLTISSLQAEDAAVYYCQQYHRLPLSFGGGTKVEIK: 120 nM (3 of 3 replicates; controls 1 of 9).
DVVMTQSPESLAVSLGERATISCFSVQSVLYESRNKNSVAWYQQKAGQPPKLLIYWMSTRESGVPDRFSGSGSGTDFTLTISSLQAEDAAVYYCQQYHRLPLSFGGGTKVEIK: nd (0 of 3 replicates; controls 1 of 9).
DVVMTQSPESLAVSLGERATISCKTPQSVVYESRNKNSVAWYQQKAGQPPKLLIYWASTRESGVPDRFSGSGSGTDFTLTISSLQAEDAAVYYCQQYHRLPLSFGGGTKVEIK: 6.4 nM (3 of 3 replicates; controls 0 of 9).
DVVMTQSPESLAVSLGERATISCNSSQSVLYERRNKNSVAWYQQKAGQPPKLLIYWASTRESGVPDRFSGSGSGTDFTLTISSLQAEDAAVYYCQQNHRLPLSFGGGTKVEIK: 7.2 µM (3 of 3 replicates; controls 2 of 9).

The closing 3 entries, repeated:

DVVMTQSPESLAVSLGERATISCFSVQSVLYESRNKNSVAWYQQKAGQPPKLLIYWMSTRESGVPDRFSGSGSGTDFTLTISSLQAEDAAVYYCQQYHRLPLSFGGGTKVEIK: nd (0 of 3 replicates; controls 1 of 9).
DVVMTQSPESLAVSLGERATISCKTPQSVVYESRNKNSVAWYQQKAGQPPKLLIYWASTRESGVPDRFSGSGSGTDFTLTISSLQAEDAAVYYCQQYHRLPLSFGGGTKVEIK: 6.4 nM (3 of 3 replicates; controls 0 of 9).
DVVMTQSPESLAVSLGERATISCNSSQSVLYERRNKNSVAWYQQKAGQPPKLLIYWASTRESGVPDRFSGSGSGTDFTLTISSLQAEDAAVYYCQQNHRLPLSFGGGTKVEIK: 7.2 µM (3 of 3 replicates; controls 2 of 9).

Background: pairings of library AAYL50 with three empty control strains gave a value in 18% of cases (median 15 µM, 5th percentile 970 nM). Values in that range, when seen in few replicates, are hard to tell from nonspecific mating. The control count says in how many pairings with the empty strains this scFv gave a signal. Parent in this assay: reference entry 4.4 nM, copy in this library 48 nM.

Data: MIT Lincoln Laboratory AlphaSeq set, Engelhart et al. 2022, doi:10.1038/s41597-022-01779-4, as distributed in FLAb.